Assay results reported in US8628752B2, “Methods of identifying HSP90 inhibitors with less ocular toxicity” (Synta Pharmaceuticals Corp., priority 2011, dated 2014).

Compound: CC(C)c1cc(-c2nnc(S)n2-c2ccc3c(ccn3C)c2)c(O)cc1O [Compound 1, 4-isopropyl-6-(5-mercapto-4-(1-methyl-1H-indol-5-yl)-4H-1,2,4-triazol-3-yl)benzene-1,3-diol]
- CSF concentration (SD rats, i.v., Day 2, 6 h, mg/kg: AUY922 10, 17-DMAG 20, Compound 1 50, 17-AAG 80): BQL
- Elimination from the retina (in words) (rats): more rapidly eliminated from the retina
